Earlier results on 1 substance are cited in patent US9724544B2, “Vitamin D promoting sunscreen” (priority 2009, dated 2017).

The conditions of the series: approximately 295 to 315 nm; cited from earlier work.

Consider “2,2′-dihydroxy-4,4′-dimethoxybenzophenone-5,5′-disodium sulfonate”, for which the “absorption in the vitamin D producing range” value is on record as “relative lack of absorption”.
